# In ChEMBL document CHEMBL1133451, “Optimization of substituted N-3-benzylimidazoquinazolinone sulfonamides as potent and selective PDE5 inhibitors” (J Med Chem, 2000):
# Tests used:
# [1] = In vitro selectivity ratio of PDE2 of Rat kidney to human platelet PDE5 was determined
# Method in brief: (§1)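 Scintillation proximity PDE assay at room temperature, read by scintillation counting. Substrates: [³H]cGMP for PDE5 (sonicated human platelet homogenate) and PDE1 (bovine heart, with 1 µM calmodulin and 4 mM calcium). PDE2 (rat kidney cytosol, Mono-Q purified) used [³H]cAMP plus 1 µM nonradioactive cGMP. PDE6 was stripped from bovine rod outer segments and trypsin-activated. Blank subtracted; activity as percent of vehicle; ratio = IC50 other/IC50 PDE5.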
# [2] = tested on: cGMP-specific 3',5'-cyclic phosphodiesterase (Oryctolagus cuniculus); experiment: Rabbit Corpus Cavernosum functional assay at 30 nM to determine the efficacy of PDE5 inhibition activity.
# [3] = In vitro selectivity ratio of PDE6 of Bovine retina to human platelet PDE5 was determined; method in brief: as §1
# [4] = In vitro selectivity ratio of Bovine Heart PDE1 to human platelet PDE5 was determined; method in brief: as §1
IC50 ratio [1],Control relaxation [2],IC50 ratio [3],IC50 ratio [4],SMILES
> 10000,90%,60,> 10000,CCCOc1ccc(S(=O)(=O)N2CCN(C)CC2)cc1-c1nc(O)c2cc3c(cc2n1)ncn3Cc1ccc(F)cc1
> 10000,140%,90,> 10000,CCCOc1ccc(S(=O)(=O)N2CCN(CC)CC2)cc1-c1nc(O)c2cc3c(cc2n1)ncn3Cc1ccccc1OC
